Laboratory results: ChEMBL document CHEMBL1136581, “Synthesis of dopamine transporter selective 3-[2-(diarylmethoxyethylidene)]-8-alkylaryl-8-azabicyclo[3.2.1]octanes” (Bioorg Med Chem Lett, 2003)

By UniProt entry, the sequences of proteins in these tests, tags left out.
UniProt P23977, whole entry: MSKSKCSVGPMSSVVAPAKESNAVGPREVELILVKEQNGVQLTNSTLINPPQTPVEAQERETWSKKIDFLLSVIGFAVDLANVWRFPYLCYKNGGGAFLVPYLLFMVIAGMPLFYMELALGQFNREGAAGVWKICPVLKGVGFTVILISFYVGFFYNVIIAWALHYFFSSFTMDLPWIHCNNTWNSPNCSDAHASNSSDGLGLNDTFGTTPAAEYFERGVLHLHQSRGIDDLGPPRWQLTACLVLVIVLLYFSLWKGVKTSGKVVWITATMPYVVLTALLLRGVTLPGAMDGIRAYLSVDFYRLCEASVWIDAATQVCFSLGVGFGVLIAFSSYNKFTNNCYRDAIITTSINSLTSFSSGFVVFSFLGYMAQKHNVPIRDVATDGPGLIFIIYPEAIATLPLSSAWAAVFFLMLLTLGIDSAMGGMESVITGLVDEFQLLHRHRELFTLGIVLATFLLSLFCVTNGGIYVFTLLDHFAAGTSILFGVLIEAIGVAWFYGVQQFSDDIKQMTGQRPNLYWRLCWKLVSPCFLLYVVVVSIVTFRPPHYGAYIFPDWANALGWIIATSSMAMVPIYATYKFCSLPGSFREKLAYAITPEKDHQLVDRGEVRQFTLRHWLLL

Molecular target: Sodium-dependent dopamine transporter (Rattus norvegicus, UniProt P23977)
Experiment: Binding affinity at dopamine transporter from rat caudate-putamen tissue by [3H]WIN-35428 displacement.
In short: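 Compounds were tested as oxalate salts. Ki values are the mean ± SEM of three experiments, each run in triplicate.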

## Fc1ccc(C(OCC=C2CC3CCC(C2)N3Cc2ccccc2)c2ccc(F)cc2)cc1
  Ki: 7.9 nM
